Data set [1] concerns the target T1, SSTR2 (Homo sapiens, UniProt P30874). The data set can be described thus: Agonist activity evaluation (cAMP production suppression), SSTR2 receptor expression cells. The data set is classed as cell-based. Further details: host or cells: CHO-K1 cells.
Data set [2] addresses T2, SSTR5 (Homo sapiens, UniProt P35346). The data set can be described thus: Competitive binding assay, SSTR5. The settings on record: Table 3B, Example 67-2, competitive binding assay; for IC50: read-out: SSTR5 IC50; for Ki: read-out: SSTR5 Ki.
Data set [3] has as its target T3, SSTR3 (Homo sapiens, UniProt P32745). Briefly: Agonist activity evaluation (cAMP production suppression), SSTR3 receptor expression cells. The arrangement: host or cells: CHO-K1 cells. The data set is classed as cell-based.
In a further data set the target is SSTR4 (Homo sapiens, UniProt P31391). The data set can be described thus: Agonist activity evaluation (cAMP production suppression), SSTR4 receptor expression cells. The format is cell-based. The settings on record: Table 3E, Example 67-4; read-out: IC50 of the agonist activity, SSTR4.
Data set [4] addresses T1, SSTR2. The data set can be described thus: Competitive binding assay, SSTR2. The settings on record: Table 3B, Example 67-2, competitive binding assay; for IC50: read-out: SSTR2 IC50; for Ki: read-out: SSTR2 Ki.
The target in data set [5] is T3, SSTR3. The data set can be described thus: Competitive binding assay, SSTR3. The settings on record: Table 3B, Example 67-2, competitive binding assay; for IC50: read-out: SSTR3 IC50; for Ki: read-out: SSTR3 Ki.
Data set [6] is described as follows: Pharmacokinetics test with rats (intravenous and subcutaneous administration). The settings on record: rats; for extension of t1/2 compared to the non-glycosylated form (SRIF28 or SRIF14) / increase of AUC compared to the non-glycosylated form (SRIF28 or SRIF14): administered intravenously; for BA: subcutaneous vs intravenous.
The target in data set [7] is T4, SSTR1 (Homo sapiens, UniProt P30872). The data set can be described thus: Competitive binding assay, SSTR1. The settings on record: Table 3B, Example 67-2, competitive binding assay; for IC50: read-out: SSTR1 IC50; for Ki: read-out: SSTR1 Ki.
For data set [8], the target named is T2, SSTR5. The data set can be described thus: Agonist activity evaluation (cAMP production suppression), SSTR5 receptor expression cells. The data set is classed as cell-based. The arrangement: host or cells: CHO-K1 cells.
In data set [9] the target is T1, SSTR2.
The target of data set [10] is T4, SSTR1.
Data set [11] concerns the target T3, SSTR3.
The target of data set [12] is T2, SSTR5.
[13] abbreviates: Table 3E, Example 67-4; read-out: IC50 of the agonist activity, SSTR2.
[14] abbreviates: Table 3E, Example 67-4; read-out: IC50 of the agonist activity, SSTR3.
Setting [15] is: intravenous administration, Tables 5B-5F (Examples 73-84).
[16] abbreviates: subcutaneous administration, Tables 5B-5F (Examples 73-84).
The mark [17] stands for this setting: Table 3E, Example 67-4; read-out: IC50 of the agonist activity, SSTR5.
Where [18] appears, read: BA=(AUC(sc)/Dose(sc))/(AUC(iv)/Dose(iv)), Table 5A.
Where [19] appears, read: intravenous administration, Table 5A (Examples 69-72), spread in the line below.
Setting [20] is: subcutaneous administration, Table 5A (Examples 69-72), spread in the line below.
Setting [21] is: Examples 69-72 (text on Table 5A).
[22] abbreviates: Table 5E, intravenous, unit as in Table 4.
[23] abbreviates: Table 5E, subcutaneous, unit as in Table 4.

The chains behind the UniProt entries cited, without tags or fusion partners. Where a name states a change or a piece, a line headed by the entry shows the natural chain unless it says otherwise.
UniProt P30874: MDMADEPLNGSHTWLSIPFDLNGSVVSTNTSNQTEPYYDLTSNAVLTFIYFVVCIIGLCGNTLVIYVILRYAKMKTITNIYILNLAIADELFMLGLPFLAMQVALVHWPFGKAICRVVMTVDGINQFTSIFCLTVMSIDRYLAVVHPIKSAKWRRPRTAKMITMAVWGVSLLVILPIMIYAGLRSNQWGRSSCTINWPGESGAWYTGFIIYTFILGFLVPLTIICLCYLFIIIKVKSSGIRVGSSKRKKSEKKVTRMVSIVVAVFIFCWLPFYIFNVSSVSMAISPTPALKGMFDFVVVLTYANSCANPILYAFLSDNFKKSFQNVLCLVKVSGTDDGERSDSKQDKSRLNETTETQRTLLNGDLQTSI
UniProt P35346: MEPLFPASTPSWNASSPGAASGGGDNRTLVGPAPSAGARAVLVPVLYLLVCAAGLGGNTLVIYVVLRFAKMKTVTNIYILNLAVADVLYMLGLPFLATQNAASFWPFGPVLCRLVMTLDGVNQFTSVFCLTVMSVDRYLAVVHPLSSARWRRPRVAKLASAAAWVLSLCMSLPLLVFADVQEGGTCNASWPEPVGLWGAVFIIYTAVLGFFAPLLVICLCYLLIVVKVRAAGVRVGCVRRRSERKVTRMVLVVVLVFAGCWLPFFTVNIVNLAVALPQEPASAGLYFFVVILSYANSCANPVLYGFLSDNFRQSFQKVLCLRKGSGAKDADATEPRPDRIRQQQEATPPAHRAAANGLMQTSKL
UniProt P32745: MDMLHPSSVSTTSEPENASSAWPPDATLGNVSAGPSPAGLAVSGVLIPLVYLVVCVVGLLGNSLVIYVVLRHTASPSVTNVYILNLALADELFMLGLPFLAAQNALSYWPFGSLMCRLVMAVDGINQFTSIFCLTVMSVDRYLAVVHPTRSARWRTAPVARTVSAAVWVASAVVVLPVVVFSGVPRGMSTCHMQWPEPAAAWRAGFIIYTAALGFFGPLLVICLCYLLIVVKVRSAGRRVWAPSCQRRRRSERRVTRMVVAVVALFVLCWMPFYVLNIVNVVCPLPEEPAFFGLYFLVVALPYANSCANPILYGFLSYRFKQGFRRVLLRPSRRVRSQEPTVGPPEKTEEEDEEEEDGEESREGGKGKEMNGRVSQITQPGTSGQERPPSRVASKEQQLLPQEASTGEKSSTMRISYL
UniProt P31391: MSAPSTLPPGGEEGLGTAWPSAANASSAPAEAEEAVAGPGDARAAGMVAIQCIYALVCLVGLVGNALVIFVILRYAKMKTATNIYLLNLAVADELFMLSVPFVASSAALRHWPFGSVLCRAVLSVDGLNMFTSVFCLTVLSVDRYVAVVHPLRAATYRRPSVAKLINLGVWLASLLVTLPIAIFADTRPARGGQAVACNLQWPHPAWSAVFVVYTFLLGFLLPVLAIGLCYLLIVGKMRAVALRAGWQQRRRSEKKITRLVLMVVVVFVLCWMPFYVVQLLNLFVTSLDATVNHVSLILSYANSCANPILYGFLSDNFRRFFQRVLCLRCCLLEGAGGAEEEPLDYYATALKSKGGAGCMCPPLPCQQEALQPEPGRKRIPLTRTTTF
UniProt P30872: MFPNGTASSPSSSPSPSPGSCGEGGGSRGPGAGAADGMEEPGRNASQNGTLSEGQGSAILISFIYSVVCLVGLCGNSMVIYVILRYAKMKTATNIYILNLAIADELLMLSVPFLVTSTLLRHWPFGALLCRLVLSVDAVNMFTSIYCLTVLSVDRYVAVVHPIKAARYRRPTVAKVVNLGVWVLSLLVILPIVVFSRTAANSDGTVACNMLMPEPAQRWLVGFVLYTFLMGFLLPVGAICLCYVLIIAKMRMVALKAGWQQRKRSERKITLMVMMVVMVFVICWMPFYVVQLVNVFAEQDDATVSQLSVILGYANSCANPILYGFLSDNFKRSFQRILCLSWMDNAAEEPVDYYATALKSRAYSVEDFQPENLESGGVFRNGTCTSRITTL

Like-named read-outs stand apart in the source and are kept apart here.

For 2C(disialo)-R-K-SRIF14 [Example 48], on SSTR2 [1] (setting [13]), the IC50 was 0.15 nM. On SSTR5 [2], the IC50 amounted to 6.16 nM and the Ki was determined as 3.48 nM. The IC50 on SSTR3 [3] (setting [14]) came out at 0.55 nM. In addition, the IC50 at SSTR4 came out at 1.1 nM. On SSTR2 [4], the IC50 turned out to be 5.35 nM and the inhibition constant (Ki) amounted to 2.84 nM. On SSTR3 [5], the IC50 amounted to 9.74 nM and the Ki was determined as 3.33 nM. Further, in data set [6], the “extension of t1/2 compared to the non-glycosylated form (SRIF28 or SRIF14)” value is recorded as 63 folds and the “increase of AUC compared to the non-glycosylated form (SRIF28 or SRIF14)” value was 42 folds. Further, in [6] (setting [15]), the “Intravenous administration AUC” value was found to be 5041 nM·min, the “Intravenous administration C0” value is 704 nM, the “Intravenous administration MRT” value turned out to be 24.1 min and the “Intravenous administration T1/2” value was 31.7 min. In addition, in data set [6] (setting [16]), the “Subcutaneous administration AUC” value came to 3310 nM·min, the “Subcutaneous administration Cmax” value is listed as 36.7 nM, the “Subcutaneous administration MRT” value came out at 73.4 min and the “Subcutaneous administration T1/2” value was 47.7 min. The substance also showed a BA in [6] (Tables 5B-5F (Examples 73-84)) of 66%.

For C(disialo)-K-SRIF14 [Example 40], the IC50 on SSTR2 [1] (setting [13]) turned out to be 0.019 nM. On SSTR5 [2], the IC50 turned out to be 3.52 nM and the inhibition constant (Ki) was found to be 1.99 nM. The IC50 on SSTR3 [3] (setting [14]) turned out to be 0.1 nM. On SSTR1 [7], the IC50 was 20.7 nM and the Ki was 17.2 nM. Further, the IC50 on SSTR4 was found to be 0.059 nM. Besides, at SSTR2 [4], the IC50 was determined as 1.97 nM and the Ki is 1.05 nM. Also, at SSTR3 [5], the IC50 turned out to be 3.55 nM and the Ki was 1.21 nM. In [6] (setting [15]), the “Intravenous administration AUC” value was found to be 5277 nM·min, the “Intravenous administration C0” value amounted to 646 nM, the “Intravenous administration MRT” value is listed as 19.4 min and the “Intravenous administration T1/2” value is 18.8 min. In [6] (setting [16]), the “Subcutaneous administration AUC” value turned out to be 2446 nM·min, the “Subcutaneous administration Cmax” value turned out to be 40.5 nM, the “Subcutaneous administration MRT” value is recorded as 43.7 min and the “Subcutaneous administration T1/2” value worked out at 26.4 min. This substance came in with a BA in data set [6] (Tables 5B-5F (Examples 73-84)) of 46%.

In the case of “C(disialo)-PEG linker-SRIF14 [Example 43]”, the IC50 at SSTR2 [1] (read-out: IC50 of the agonist activity, SSTR2; Table 3E, Example 67-4) stood at 0.034 nM. Further, on SSTR5 [2], the IC50 is greater than 10 nM and the Ki is greater than 5.65 nM. Moreover, on SSTR3 [3] (read-out: IC50 of the agonist activity, SSTR3; Table 3E, Example 67-4), the IC50 stood at 0.15 nM. The IC50 on SSTR5 [8] (read-out: IC50 of the agonist activity, SSTR5; Table 3E, Example 67-4) was 0.16 nM. On SSTR1 [7], the IC50 came out at 36 nM and the Ki is 30 nM. At SSTR2 [4], the half-inhibitory concentration (IC50) was determined as 4.67 nM and the Ki is 2.48 nM. Also, on SSTR3 [5], the IC50 was 8.71 nM and the Ki turned out to be 2.98 nM. In data set [6] (setting [15]), the “Intravenous administration AUC” value was 3538 nM·min, the “Intravenous administration C0” value amounted to 412 nM, the “Intravenous administration MRT” value is given as 18.8 min and the “Intravenous administration T1/2” value amounted to 16.4 min. Also, in data set [6] (setting [16]), the “Subcutaneous administration AUC” value came out at 2725 nM·min, the “Subcutaneous administration Cmax” value is given as 47.8 nM, the “Subcutaneous administration MRT” value is 39.2 min and the “Subcutaneous administration T1/2” value was found to be 20.7 min. The BA in data set [6] (Tables 5B-5F (Examples 73-84)) worked out at 77%.

In the case of C(disialo)-SRIF14 [Example 17], the Ki on SSTR2 [9] stood at 0.179 nM; at SSTR1 [10], 26.7 nM; on SSTR3 [11], 1.58 nM. The IC50 turned out to be 0.18 nM at SSTR3 [3] (setting [14]); 0.23 nM on SSTR5 [8] (setting [17]); 32.3 nM on SSTR1 [10]; 0.1 nM at SSTR4; 2.62 nM against SSTR3 [11]. Besides, the BA in [6] (Tables 5B-5F (Examples 73-84)) is 66%.

Take “N5C(disialo)-A9C(disialo)-SRIF28 [Example 23]”: the IC50 at SSTR2 [1] (setting [13]) came to 0.096 nM; against SSTR2 [9] it was 0.793 nM; at SSTR3 [3] (setting [14]), 0.29 nM; on SSTR5 [8] (setting [17]), 0.13 nM; against SSTR1 [10] it was 30 nM; at SSTR4, 0.091 nM. In addition, the Ki on SSTR2 [9] was 0.421 nM; on SSTR1 [10], 24.9 nM; on SSTR3 [11] it was 1.49 nM. The substance further had a BA in data set [6] (setting [18]) of 77%.

Consider S1-2C(disialo)-SRIF28 [Example 20], for which, on SSTR5 [12], the IC50 was determined as 0.607 nM and the Ki is 0.343 nM. On SSTR2 [9], this substance displayed a half-maximal inhibitory concentration (IC50) of 0.338 nM and a Ki of 0.179 nM. Further, the IC50 at SSTR3 [3] (setting [14]) amounted to 0.55 nM. Besides, the IC50 at SSTR5 [8] (setting [17]) was 0.22 nM. On SSTR1 [10], the IC50 is 18.8 nM and the Ki came out at 15.5 nM. In addition, the IC50 at SSTR4 came out at 0.14 nM. For the same substance, at SSTR3 [11], the IC50 was 1.28 nM and the affinity corresponds to a Ki of 0.439 nM. Besides, in data set [6], the “extension of t1/2 compared to the non-glycosylated form (SRIF28 or SRIF14)” value amounted to 21 folds and the “increase of AUC compared to the non-glycosylated form (SRIF28 or SRIF14)” value was determined as 12 folds. For the same substance, in data set [6] (setting [19]), the “Intravenous administration AUC” value turned out to be 7306 nM·min, the “Intravenous administration C0” value worked out at 1382 nM, the “Intravenous administration MRT” value was determined as 23.3 min and the “Intravenous administration t1/2” value worked out at 28.8 min. Moreover, in [6] (setting [15]), the “Intravenous administration AUC” value stood at 5804 nM·min, the “Intravenous administration C0” value is on record as 950 nM, the “Intravenous administration MRT” value worked out at 23.0 min and the “Intravenous administration T1/2” value was determined as 28.2 min. In addition, in data set [6] (setting [20]), the “Subcutaneous administration AUC” value was 4046 nM·min, the “Subcutaneous administration Cmax” value was 46.3 nM, the “Subcutaneous administration MRT” value came out at 67.9 min and the “Subcutaneous administration t1/2” value was found to be 40.9 min. For the same substance, in data set [6] (setting [16]), the “Subcutaneous administration AUC” value is 3091 nM·min, the “Subcutaneous administration Cmax” value came to 34.6 nM, the “Subcutaneous administration MRT” value worked out at 65.3 min and the “Subcutaneous administration T1/2” value is listed as 40.8 min. This substance also displayed a BA in [6] (setting [18]) of 55%. The substance further came in with a BA in data set [6] (Tables 5B-5F (Examples 73-84)) of 53%. Moreover, in data set [6] (setting [21]), the “AUC for intravenous administration” value turned out to be 7306 nM·min and the “bioavailability (BA), subcutaneous administration” value came out at 55%.

As for S1-3C(asialo)-SRIF28 [Example 29], the IC50 at SSTR2 [1] (setting [13]) was 0.19 nM. Also, on SSTR5 [12], the midpoint of inhibition, the IC50, lay at 0.369 nM and the affinity corresponds to a Ki of 0.209 nM. On SSTR2 [9], this substance returned an IC50 of 0.0978 nM and a Ki of 0.0519 nM. On SSTR1 [10], half-maximal inhibition (IC50) was put at 4.21 nM and the affinity, expressed as Ki, was 3.49 nM. The IC50 at SSTR4 is 0.1 nM. Moreover, on SSTR3 [11], the IC50 was 0.581 nM and affinity was put at a Ki of 0.199 nM. Besides, in data set [6] (Table 5E, intravenous, extrapolation, unit as in Table 4), the “C0, intravenous administration” value is recorded as 1147 nM. Moreover, in data set [6] (setting [22]), the “AUC, intravenous administration” value stood at 2733 nM·min; the “MRT, intravenous administration” value amounted to 6.50 min; the “T1/2, intravenous administration” value turned out to be 6.60 min. Moreover, in data set [6] (setting [23]), the “AUC, subcutaneous administration” value was found to be 885 nM·min; the “Cmax, subcutaneous administration” value is on record as 15.0 nM; the “MRT, subcutaneous administration” value stood at 42.1 min; the “T1/2, subcutaneous administration” value worked out at 26.4 min. The “BA (bioavailability), subcutaneous administration” value in data set [6] (Table 5E, formula of b926) is reported as 32%. Also, in [6], the “extension of t1/2 compared to the non-glycosylated form (SRIF28 or SRIF14)” value is 5 folds and the “increase of AUC compared to the non-glycosylated form (SRIF28 or SRIF14)” value was found to be 6 folds.

The values above are taken from patent US20170157260A1, “Glycosylated Polypeptide and Drug Composition Containing said Polypeptide” (Glytech, Inc., priority 2011, published 2017).
